miR-122 sensor = miR-122 Renilla sensor signal increase in Huh7, primary screen, miR-122 inhibitor project, cell-based, single point, plate reader | Huh7 miR-122 Renilla luciferase sensor, 48 h; neutral wells = 0, positive control = 100 | activation (reporter increase), % at 12.5 µM | actives 0.3% (n = 340,000) | AID 602342, 2012;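 active = mean replicate activation score at least 90 and every replicate individually at or above 90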;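 note: higher luciferase means less miR-122 activity so hits act as miR-122 inhibitors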
PglD inh = C. jejuni PglD acetyltransferase inhibitors, primary screen, biochemical, DTNB colorimetric, single point; inhibition, % at 12.5 µM; actives 0.098% (n = 360,000); purified PglD enzyme, DTNB colorimetric CoA detection; UDP-N-acetylbacillosamine N-acetyltransferase PglD (Campylobacter jejuni); in the data active = inhibition above about 16%, passing the limit was not always enough
LGR2 inh = inhibitors of bursicon-induced LGR2 CRE-luciferase signal, primary screen, cell-based, HEK293, CRE-luciferase reporter, bursicon stimulation | bursicon-stimulated, 4 h | inhibition, % at 9.99 µM | actives 0.35% (n = 380,000) | AID 720647, 2013;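 active = drop in luminescence signal, shown as inhibition above about 50% in the replicate tests, limit read from the data, passing the limit was not always enough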;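 note: agonist challenge used bursicon conditioned medium at about half maximal strength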
Yeast UUG start = modulators of start codon recognition fidelity in yeast; AID 602363; hit rate 0.13% among 350,000; activity score, % at 18.7 µM; S. cerevisiae UUG-firefly luciferase reporter, luminescence/redox ratio;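 active = replicate mean at a twofold rise or more, about +100% in these data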;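 note: firefly luciferase made from a UUG start codon reports start codon fidelity; reporter light over untreated wells divided by growth signal over untreated wells; some hits fall short of that in this replicate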
F508del corr = F508del CFTR correction, initial screen, CFBE line, single point | CFBE cells, YFP halide quenching; stimulated with forskolin plus potentiator P3; % fluorescence drop versus neutral controls | activity (quench increase), % at 7.58 µM | actives 0.36% (n = 350,000);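 active = mean added fluorescence quench of at least 8% versus neutral control, with both replicates also reaching 8%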;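 note: cells transiently co-express mutant CFTR-F508del with the halide-sensitive YFP; corrector assay measuring rescue of mutant channel to the surface after 24 h compound exposure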
EWS-Fli block = EWS/Fli-driven NR0B1 reporter inhibitors, primary screen, A673 cells, NR0B1 luciferase, luminescence, MLPCN library | viability-normalised | inhibition, % at 12.6 µM | actives 0.67% (n = 350,000) | AID 651661, 2012;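 active = mean inhibition of at least 50% after viability correction, with every replicate also passing that limit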;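 note: firefly luciferase signal divided by Alamar Blue viability fluorescence both relative to DMSO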
Starred values were filed as active, the others as inactive; . = no result given; ! = not confirmed by another sample; [ ] = dose if it differs, or a comment. Compounds with a hit are over-represented: about 1.3% of the library has one in this group of screens.

entry	Structure	miR-122 sensor	PglD inh	LGR2 inh
1	COc1cccc(-c2ccc([C@H]3[C@@H](CO)N(C(=O)c4ccccn4)[C@H]3C#N)cc2)c1	.	0.8	66.1*
2	N#C[C@H]1[C@@H](c2ccc(C3=CCCCC3)cc2)[C@H](CO)N1C(=O)NC1CCCC1	.	.	-11.7
3	COc1cccc(-c2ccc([C@H]3[C@@H](C#N)N(C(=O)c4ccccn4)[C@@H]3CO)cc2)c1	.	-1.9	-6.7
4	N#C[C@H]1[C@@H](c2ccc(C3=CCCCC3)cc2)[C@@H](CO)N1C(=O)c1ccccn1	.	-4.0	-2.5
5	N#C[C@H]1[C@H](c2ccc(C3=CCCCC3)cc2)[C@@H](CO)N1C(=O)NC1CCCCC1	.	-2.5	-5.2
6	CCOc1cc(C=O)ccc1OCCSc1ccc(C)cc1	4.4	9.5	-8.9
7	O=C(CC1Sc2ccccc2NC1=O)OCC(=O)N1CCc2ccccc21 (configuration not stated)	2.9	-2.3	.
8	C=CC(C)n1c(Br)nc2c1c(=O)[nH]c(=O)n2C (configuration not stated)	154.3*	.	11.8
9	C=CCn1c(Br)nc2c1c(=O)[nH]c(=O)n2C	-2.0	4.3	.
10	CCOC(=O)N1CCN(C(=O)c2ccc3nc(SCc4ccc(F)cc4)n(C)c3c2)CC1	.	0.7	20.4
11	COc1cccc(C(=O)O/N=C(\N)c2ccccn2)c1	-1.2	-6.8	101.0*
12	Cc1ccc(CC(=O)O/N=C(\N)c2ccccn2)cc1	-0.9	-0.8	-46.9

entry	Yeast UUG start	F508del corr	EWS-Fli block
1	10.4	15.0*	-9.0
2	.	-0.3	-2.7
3	-6.0	-3.5	-52.1
4	3.0	-1.0	-5.7
5	-5.5	10.1*	-1.3
6	-19.6	-2.4	-10.8
7	-6.6	.	.
8	.	.	.
9	-14.9	.	.
10	4.6	.	.
11	-95.0	2.0	48.2
12	-24.5	1.7	-46.2

Other entries follow.
entry	Structure	miR-122 sensor	PglD inh	LGR2 inh
13	CC(C)(C)CC(=O)O/N=C(\N)c1ccccn1	.	.	61.8*
14	N/C(=N\OC(=O)c1ccc(=O)n(Cc2ccccc2)c1)c1ccccn1	-3.5	0.7	-3.0
15	CCCc1ccc(C(=O)O/N=C(\N)c2ccccn2)cc1	-2.3	-10.0	103.0*
16	COc1cccc(C(=O)O/N=C(\N)c2ccccn2)c1OC	.	1.6	69.5*
17	COc1cccc(C(=O)NOCc2ccccc2)c1OC	-6.1	0.2	-26.7
18	COc1cccc(-c2nn(-c3ccccc3)cc2CN2CCCO2)c1	5.3	-7.8	.
19	N/C(=N\OC(=O)c1ccc2ccccc2c1)c1ccccn1	-9.7	-1.7	97.5*
20	O=C(Nc1ccc(F)c(F)c1)c1cnc(-c2ccccc2)nc1-c1ccccc1	1.7	-3.1	.
21	Cc1cc(Cl)n2c(nc3cc(F)c(F)cc32)c1C#N	.	.	30.6
22	Cc1cc(C)n2c(=O)c3ccc(Cl)cc3nc2c1C#N	.	.	-32.7
23	S=C(NC1CC1)N1CCCc2ccccc21	.	.	8.2
24	CCOc1ccc(Br)cc1S(=O)(=O)Nc1ccc(Cl)c(S(=O)(=O)N(CC)c2ccccc2)c1	281.0*	2.4	15.7

entry	Yeast UUG start	F508del corr	EWS-Fli block
13	.	.	.
14	-8.7	0.7	8.1
15	-93.4	-0.9	88.0*
16	-76.7	7.3	-85.7
17	-18.9	3.3	-74.1
18	4.4	-3.1	-9.0
19	-76.0	-3.2	80.3*
20	-7.2	.	.
21	.	-9.9	58.3*
22	.	-2.2	-2.8
23	-10.2	-3.1	.
24	-8.0	-0.1	4.3

Random excerpt: 4 compounds from above, in no set order.
entry	Structure	miR-122 sensor	PglD inh	LGR2 inh
19	N/C(=N\OC(=O)c1ccc2ccccc2c1)c1ccccn1	-9.7	-1.7	97.5*
22	Cc1cc(C)n2c(=O)c3ccc(Cl)cc3nc2c1C#N	.	.	-32.7
21	Cc1cc(Cl)n2c(nc3cc(F)c(F)cc32)c1C#N	.	.	30.6
17	COc1cccc(C(=O)NOCc2ccccc2)c1OC	-6.1	0.2	-26.7

entry	Yeast UUG start	F508del corr	EWS-Fli block
19	-76.0	-3.2	80.3*
22	.	-2.2	-2.8
21	.	-9.9	58.3*
17	-18.9	3.3	-74.1

Next entries follow.
entry	Structure	miR-122 sensor	PglD inh	LGR2 inh
25	Cc1cc(S(=O)(=O)NCC(c2ccccc2)c2ccccc2)ccc1-n1cnnn1	125.2*	2.8	-6.8
26	Cc1cc(S(=O)(=O)N(Cc2ccccc2F)C2CC2)ccc1-n1cnnn1	143.2*	.	7.4
27	C=CCN=C1SC(C)C(=O)N1S(=O)(=O)c1ccccc1 (configuration not stated)	-7.2	-3.6	3.9
28	Nc1ccn([C@H]2C[C@H](O)[C@@H](CO)O2)c(=O)n1	2.2	0.7	9.1
29	Nc1nc(F)nc2c1ncn2[C@@H]1O[C@H](CO)[C@@H](O)[C@H]1O	-27.1	5.2	75.3*
30	Nc1nc(Cl)nc2c1ncn2C1OC(CO)C(O)C1O (configuration not stated)	-4.0	-3.4	.
31	Nc1nc(F)nc2c1ncn2[C@@H]1O[C@H](CO)[C@@H](O)[C@@H]1O	0.6	-4.9	0.0
32	Nc1nc(Cl)nc2c1ncn2C1CC(O)C(CO)O1 (configuration not stated)	-5.7	-4.7	20.9
33	COCC(=O)N1CC[C@@H]2[C@@H](CO)Nc3ccc(C#Cc4ccc(F)cc4)cc3[C@@H]21	.	.	14.7
34	Cc1cc(C)c(C)c(S(=O)(=O)ON2C(=O)c3ccccc3C2=O)c1C	-3.1	1.0	5.5
35	COc1ccc(NC(=O)N(C)C[C@@H]2OCCCC[C@H](C)Oc3ccc(NC(=O)NC4CCCCC4)cc3C(=O)N([C@H](C)CO)C[C@@H]2C)cc1	4.4[16.7 µM]	-0.5	57.2*
36	C[C@H]1CCCCO[C@@H](CN(C)C(=O)Nc2ccccc2)[C@@H](C)CN([C@@H](C)CO)C(=O)c2cc(NC(=O)NC3CCCCC3)ccc2O1	-1.2[16.7 µM]	7.9	62.9*

entry	Yeast UUG start	F508del corr	EWS-Fli block
25	-5.7	.	.
26	-28.8	1.0	2.5
27	6.2	.	.
28	-17.2	8.0*!	-4.4
29	-13.6	.	45.5
30	-4.5	7.4	9.7
31	-12.6	-2.5	16.2
32	-21.5	14.1*	27.0
33	.	-1.4	.
34	-23.2	-3.4	56.1*
35	-6.2	-1.3	-1.7
36	-17.5	0.6	-4.8

Carrying on.
entry	Structure	miR-122 sensor	PglD inh	LGR2 inh
37	O=c1c(Cl)c(Cl)cnn1Cc1nnc(-c2ccc(Cl)cc2)o1	.	.	103.9*
38	COc1ccc(C(=O)Nc2cccc(OC)c2)cc1	-3.3	-0.1	-28.5
39	COc1ccc(C(=O)Nc2ccc3[nH]c(-c4cccc(OC)c4)cc(=O)c3c2)cc1	.	4.7	-1.1
40	C=CCN1C(=O)[C@@]2(O[C@@H](CCn3cc([C@H](O)c4ccccc4)nn3)[C@H]([Si](C)(C)c3ccc(OC)cc3)[C@H]2C)c2cc(N3CCOC3=O)ccc21	.	6.2	.
41	C=CCN1C(=O)[C@@]2(O[C@@H](CCn3cc(CCO)nn3)[C@H]([Si](C)(C)c3ccc(OC)cc3)[C@H]2C)c2cc(N3CCOC3=O)ccc21	.	-0.2	.
42	Cc1ccc(C(=O)NC(C(=O)Nc2cccc(S(N)(=O)=O)c2)C(C)C)cc1 (configuration not stated)	4.5	-2.3	0.3
43	O=c1c[n+]([O-])c2ccccc2n1OCc1c(F)cccc1F	111.2*	3.0	.
44	COc1ccc(-c2cc(=Nc3ccc(C(=O)O)cc3)c3cc(C)ccc3o2)cc1	2.3	2.7	52.6*
45	COc1ccc(-c2cc(=O)c3cc(O)ccc3o2)cc1	-4.5	2.2	-24.2

entry	Yeast UUG start	F508del corr	EWS-Fli block
37	.	2.2	17.7
38	-34.2	-0.3	-26.4
39	15.7	4.0	57.4*
40	0.7	12.3*	5.3
41	-4.5	3.4	6.4
42	-14.5	1.0	3.2
43	-11.9	.	.
44	-32.0	0.9	7.3
45	-30.0	0.6	-93.9
